Data: patent publication US20210046160A1 (Synthorx, Inc., priority 2019, published 2021)

Key:
Human whole blood = assay: Whole blood cytokine release assay (MSD U-plex: IFN-γ, IL-4, IL-5, IL-6, IL-8, TNF-α); assay type: cell-based; settings: normalized by formulation buffer value
Description: Cytokines released from the whole blood after treatment into the supernatant were measured using the Meso Scale Discovery (MSD) U-plex kit for six analytes (IFN-γ, IL-4, IL-5, IL-6, IL-8, TNF-α).
Blood in heparin tubes from 6 healthy donors were obtained from The Scripps Research Institute (TSRI; San Diego, Calif.) blood donor service. Samples were tested on the day of the collection; donors 1-3 on one day and donors 4-6 on another day.
A volume of 180 μL of prediluted whole blood was seeded onto a 96-well tissue culture plate. Then, 20 μL of 10× final test concentration of compounds was added to the assay plate. […] In addition, positive and negative controls were included to show the detection and specification of the assay: 100 μg/mL pre-coated Ultra LEAF mouse anti-human CD3 were used as the positive controls for the assay. […] […] No treatment also served as a negative control for the assay.
After adding the compound(s) to the well, the blood was incubated at 37° C. After centrifugation of the samples, supernatant was collected 24 h post treatment and stored at −80° C. before analysis. The human cytokines ([…], TNF-α, IL-8, IL-6, IL-5, IL-4) released from the assay were quantified with the MSD U-plex kit. The detection limit of each plate is reported from the MSD software, Discovery workbench. Each plate has a slightly different detection limit.

CTLL-2 = CTLL-2 proliferation; assay type: cell-based

## native IL-2: recombinant human wild-type interleukin-2 (Thermo #PHC0021; R&D Systems 202-IL-500 in Example 12)
Human whole blood; donor D1, 0.03 μg/ml
  IFN-γ level: 64.49
  IL-6 level: 7.89
  IL-8 level: 2.70
  TNF-α level: 3.52
Human whole blood; donor D1, 0.1 μg/ml
  IFN-γ level: 95.61
  IL-6 level: 13.48
  IL-8 level: 3.80
  TNF-α level: 4.60
Human whole blood; donor D1, 0.2 μg/ml
  IFN-γ level: 104.20
  IL-6 level: 15.93
  IL-8 level: 4.34
  TNF-α level: 5.10
Human whole blood; donor D1, 0.8 μg/ml
  IFN-γ level: 115.31
  IL-6 level: 22.76
  IL-8 level: 5.88
  TNF-α level: 5.97
Human whole blood; donor D2, 0.03 μg/ml
  IFN-γ level: 62.13
  IL-6 level: 1.07
  IL-8 level: 2.50
  TNF-α level: 3.88
Human whole blood; donor D2, 0.1 μg/ml
  IFN-γ level: 135.05
  IL-6 level: 2.66
  IL-8 level: 5.00
  TNF-α level: 11.07
Human whole blood; donor D2, 0.2 μg/ml
  IFN-γ level: 228.19
  IL-6 level: 5.48
  IL-8 level: 5.42
  TNF-α level: 12.68
Human whole blood; donor D2, 0.8 μg/ml
  IFN-γ level: 290.42
  IL-6 level: 17.26
  IL-8 level: 6.00
  TNF-α level: 14.38
Human whole blood; donor D3, 0.03 μg/ml
  IFN-γ level: 81.74
  IL-6 level: 1.35
  IL-8 level: 1.42
  TNF-α level: 4.45
Human whole blood; donor D3, 0.1 μg/ml
  IFN-γ level: 224.27
  IL-6 level: 2.73
  IL-8 level: 3.76
  TNF-α level: 10.68
Human whole blood; donor D3, 0.2 μg/ml
  IFN-γ level: 278.17
  IL-6 level: 4.12
  IL-8 level: 4.01
  TNF-α level: 11.74
Human whole blood; donor D3, 0.8 μg/ml
  IFN-γ level: 314.96
  IL-6 level: 10.13
  IL-8 level: 4.53
  TNF-α level: 13.84
Human whole blood; donor D4, 0.03 μg/ml
  IFN-γ level: 45.09
  IL-6 level: 2.31
  IL-8 level: 1.38
  TNF-α level: 2.55
Human whole blood; donor D4, 0.1 μg/ml
  IFN-γ level: 68.31
  IL-6 level: 4.02
  IL-8 level: 1.60
  TNF-α level: 3.16
Human whole blood; donor D4, 0.2 μg/ml
  IFN-γ level: 104.40
  IL-6 level: 6.96
  IL-8 level: 1.88
  TNF-α level: 4.18
Human whole blood; donor D4, 0.8 μg/ml
  IFN-γ level: 81.72
  IL-6 level: 19.67
  IL-8 level: 2.28
  TNF-α level: 4.88
Human whole blood; donor D5, 0.03 μg/ml
  IFN-γ level: 39.50
  IL-6 level: 9.18
  IL-8 level: 3.95
  TNF-α level: 10.86
Human whole blood; donor D5, 0.1 μg/ml
  IFN-γ level: 47.44
  IL-6 level: 10.94
  IL-8 level: 4.44
  TNF-α level: 12.89
Human whole blood; donor D5, 0.2 μg/ml
  IFN-γ level: 51.97
  IL-6 level: 12.56
  IL-8 level: 4.89
  TNF-α level: 15.14
Human whole blood; donor D5, 0.8 μg/ml
  IFN-γ level: 61.31
  IL-6 level: 17.12
  IL-8 level: 5.80
  TNF-α level: 16.45
Human whole blood; donor D6, 0.03 μg/ml
  IFN-γ level: 170.85
  IL-6 level: 16.60
  IL-8 level: 11.11
  TNF-α level: 12.96
Human whole blood; donor D6, 0.1 μg/ml
  IFN-γ level: 387.76
  IL-6 level: 28.98
  IL-8 level: 17.45
  TNF-α level: 16.94
Human whole blood; donor D6, 0.2 μg/ml
  IFN-γ level: 437.67
  IL-6 level: 49.09
  IL-8 level: 27.24
  TNF-α level: 26.06
Human whole blood; donor D6, 0.8 μg/ml
  IFN-γ level: 850.98
  IL-6 level: 51.15
  IL-8 level: 25.94
  TNF-α level: 24.31
CTLL-2; Table 4
  EC50, CTLL-2 proliferation: 0.846 ng/mL
CTLL-2; Table 12
  EC50, CTLL-2 proliferation: 0.4558 ng/mL
